Sampled rows, rich in hits. Any-hit rate of the full collection: about 0.94%.
p-CIP stab down = lowers stability of the mouse p/CIP coactivator protein | Q05BA5 | F442A p/CIP-EGFP cells, EGFP fluorescence, 16 h | decrease of EGFP signal, % at 10 µM | 290,000 compounds, 0.01% hits;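 active = EGFP signal decrease of at least 30% at 10 µM or well 3 SD below plate mean, unless failing retest; inactive = the rest, including hits failing retest or dose response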
PKA-R1A activ = activates the PKA-R1A holoenzyme complex | P00514+P68181 | activation, % at 11.4 µM | AID 504707 | 340,000 compounds, 0.083% hits | PKA-R1A dissociation, Cy5-IP20 fluorescence polarization; scaled: DMSO 0%, 113 µM cGMP 100%;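 active = percent activation above the mean of all tested compounds plus 3 SD, cut at about 19% in these data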;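 note: higher means more PKAc released from R1A so a rise in polarization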
ABCB6 inh 2 = inhibitors of human ABC transporter ABCB6; Q9NP58; K562-ABCB6 porphyrin accumulation, flow cytometry, 1 h; active compounds read low; fluorescence ratio to DMSO, % at 10 µM; 360,000 compounds, 0.19% hits;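 active = fluorescence ratio to DMSO below 75%, the collection mean minus 3 SD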;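 note: signal is porphyrin accumulated inside mitochondria; 100% equals median channel fluorescence of DMSO control wells; lower ratio means ABCB6 inhibition with less porphyrin fluorescence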
Yeast UUG start = modulators of start codon recognition fidelity in yeast; AID 602363; activity score, % at 18.7 µM; S. cerevisiae UUG-firefly luciferase reporter, luminescence/redox ratio; 0.13% of 350,000 active;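 active = replicate mean at a twofold rise or more, about +100% in these data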;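 note: firefly luciferase made from a UUG start codon reports start codon fidelity; reporter light over untreated wells divided by growth signal over untreated wells; some hits fall short of that in this replicate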
PKA-R2B act = PKA-R2B complex activation. P22694+P31323. PKA-R2B holoenzyme dissociation, Cy5-IP20 fluorescence polarization; R2B truncated from residue 108, S112A mutant; 0% DMSO only, 100% 113 µM cGMP. activation, % at 11.4 µM. 340,000 compounds, 0.079% hits;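 active = activation above a cutoff set at the mean over all compounds plus 3 SD, cut at about 18% in these data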;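 note: higher means more holoenzyme dissociation and a rise in polarization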
Granule exo inh = blocks lytic granule exocytosis. inhibition, % at 10 µM. TALL-104 LAMP-1 surface exposure, flow cytometry; cells stimulated with thapsigargin and PMA. 360,000 compounds, 0.66% hits. AID 651702;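 active = inhibition above about 55%, limit read from the data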
ABCB6 inh CP1 = human ABCB6 transporter inhibition | shares compounds with ABCB6 inh 2 | K562-ABCB6 porphyrin accumulation, flow cytometry, 1 h; active compounds read low | ratio response (% of DMSO), % at 10 µM | 700 tested, under 10 active | AID 602430;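 active = repeat-averaged ratio response below 75% of DMSO, the collection mean minus 3 SD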;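 note: median porphyrin fluorescence at 575 nm with 488 nm excitation from mitochondria; lower ratio means less porphyrin signal so ABCB6 inhibition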
* marks the source's active call; other numbers are inactive results; / = no result given.

Start of the data: the first 4 entries, to show the layout:
SMILES	p-CIP stab down	PKA-R1A activ	ABCB6 inh 2	Yeast UUG start	PKA-R2B act	Granule exo inh	ABCB6 inh CP1
O=C1c2ccccc2C(=O)N1CCc1csc(-c2cccc(F)c2)n1	-0.6	-16.4	72.0*	-8.8	3.2	5.5	98.0
N#Cc1nc(COc2ccccc2)oc1N1CCCCCC1	1.8	-5.5	103.0	-17.5	-9.5	6.2	/
N#Cc1nn(-c2ccccc2)nc1N1CCCCC1	-8.3	3.0	69.0*	-33.0	-10.7	-2.0	95.0
C[C@@H]1CCCCO[C@@H](CN(C)C(=O)Nc2ccc(F)cc2)[C@@H](C)CN([C@H](C)CO)C(=O)c2cc(NC(=O)c3ccccc3)ccc2O1	/	/	/	-8.7	/	/	/

The whole of this part (from the top)
SMILES	p-CIP stab down	PKA-R1A activ	ABCB6 inh 2	Yeast UUG start	PKA-R2B act	Granule exo inh	ABCB6 inh CP1
O=C1c2ccccc2C(=O)N1CCc1csc(-c2cccc(F)c2)n1	-0.6	-16.4	72.0*	-8.8	3.2	5.5	98.0
N#Cc1nc(COc2ccccc2)oc1N1CCCCCC1	1.8	-5.5	103.0	-17.5	-9.5	6.2	/
N#Cc1nn(-c2ccccc2)nc1N1CCCCC1	-8.3	3.0	69.0*	-33.0	-10.7	-2.0	95.0
C[C@@H]1CCCCO[C@@H](CN(C)C(=O)Nc2ccc(F)cc2)[C@@H](C)CN([C@H](C)CO)C(=O)c2cc(NC(=O)c3ccccc3)ccc2O1	/	/	/	-8.7	/	/	/
O=c1c2ccccc2c(-c2ccccc2)nn1-c1cc(Cl)ccc1[N+](=O)[O-]	13.3	7.0	73.0*	-9.8	-6.5	0.2	100.0
CC(NC(=O)COc1ccc(/C=N/NS(=O)(=O)c2ccccc2)cc1)c1ccccc1 (stereo not drawn)	3.7	-8.1	69.0*	/	-4.2	0.8	99.0
COc1ccc(S(=O)(=O)Nc2ccc3c(c2)C(=O)N([C@@H](C)CO)C[C@H](C)[C@@H](CN(C)S(=O)(=O)c2ccc(F)cc2)O3)cc1	/	/	/	6.3	/	/	/
Cc1cccc(C(=O)OCC(=O)NCCCc2ccccc2)c1O	5.9	-1.4	18.0*	-4.6	-9.4	-0.8	100.0
C[C@@H]1CN([C@@H](C)CO)C(=O)Cc2cc(NC(=O)C3CC3)ccc2O[C@H]1CN(C)C(=O)Nc1ccccc1	/	/	/	19.0	/	/	/
COc1cccc(C2CC(c3cccs3)=NN2C(=O)CSc2nc3ccccc3o2)c1OC (stereo not drawn)	-5.5	-1.7	70.0*	/	-14.3	8.3	97.0
COc1ccccc1C1CC(c2cccs2)=NN1C(=O)CCC(=O)O (stereo not drawn)	-15.2	-6.4	102.0	-2.0	2.7	-1.7	/
Cc1ccc(CN(C)C(=O)c2ccccc2Oc2ccccc2)o1	-4.2	-4.6	67.0*	2.2	-2.5	3.9	98.0
O=C1NC2(CCCCC2)C(=O)N1c1cccc(Cl)c1	8.0	9.4	73.0*	/	-3.2	-1.0	100.0
CCC(=O)N1C[C@H](C)[C@H](OC)CN(C)C(=O)c2ccc(NC(=O)c3ccc(F)cc3)cc2OC[C@@H]1C	/	/	/	9.0	/	/	/
C[C@H](CO)N1C[C@H](C)[C@@H](CN(C)C(=O)c2ccncc2)OCCCC[C@H](C)Oc2ccc(NS(=O)(=O)c3ccccc3)cc2C1=O	/	/	/	-2.6	/	/	/
Cc1cc(O)c(C(C)C)cc1NC(=O)Cn1nc(C)c2ccccc2c1=O	-13.9	0.8	74.0*	2.2	-0.8	-3.7	101.0
CN(C)C(=O)c1ccc(-c2ccc([C@@H]3[C@H](CO)N4CCCCN(Cc5cncnc5)C[C@@H]34)cc2)cc1	/	/	/	-7.5	/	/	/
O=C(Nc1cccc(O)c1)c1cccc(C(=O)Nc2cccc(O)c2)c1	-1.4	4.6	98.0	-2.3	-0.8	4.3	/
CC(C)(C)NC(=O)c1cccc(NC(=O)c2cccc(O)c2)c1	-17.1	2.1	63.0*	-31.7	-19.0	1.0	101.0
O=C(CSc1nc2c(c(=O)[nH]1)CCC2)Nc1ccc(F)cc1	9.3	9.9	98.0	-11.0	0.1	-4.1	/
O=C(CSc1nc2c(c(=O)[nH]1)CCCC2)Nc1ccc(Cl)cc1F	4.4	-7.6	70.0*	-1.1	-3.6	-0.3	104.0
CC(C(=O)NC1CCCC1)N1CCN(Cc2ccccc2)CC1 (stereo not drawn)	-9.5	-11.7	93.0	/	-10.2	-3.1	/
CC(C(=O)NC(=O)NC1CCCCC1)N1CCN(C(c2ccccc2)c2ccccc2)CC1 (stereo not drawn)	1.6	-6.3	73.0*	-15.1	-2.5	0.4	100.0
CCN(CC(=O)Nc1c(F)cccc1F)C(=O)c1ccc(C#N)cc1	-0.8	-2.8	70.0*	9.8	3.5	4.9	99.0
c1csc(CNCCCN2CCOCC2)c1	-4.7	-9.0	102.0	/	-5.8	-0.8	/
CCCCOCCCNCc1cccn1CCN1CCOCC1	-6.0	-4.0	66.0*	-3.1	1.4	4.8	100.0
Cc1ccc(CC(=O)Nc2nnc(-c3ccc(F)cc3)o2)c(C)c1	4.7	6.1	74.0*	-9.4	9.1	-2.0	100.0
Cc1ccc(CNc2nc(N)c([N+](=O)[O-])c(Nc3cccc(F)c3)n2)cc1	-2.0	-2.6	101.0	/	0.0	1.4	/
Nc1nc(NCc2ccccc2)nc(Nc2cccc(F)c2)c1[N+](=O)[O-]	-8.9	4.1	41.0*	-23.7	7.7	0.8	101.0
COc1ccccc1C1C(C#N)=C(N)N(N(C)C)C2=C1C(=O)CC(C)(C)C2 (stereo not drawn)	2.5	-3.2	51.0*	-2.6	2.5	-6.7	96.0
C[C@H](CO)N1C[C@H](C)[C@H](CN(C)Cc2ccncc2)Oc2ccc(NC(=O)Cc3ccccc3)cc2C1=O	/	/	/	-2.3	/	/	/
Cc1cccc(NC(=O)c2cc(NC(=O)CCCC(=O)O)ccc2Cl)n1	-3.1	-2.9	53.0*	-3.6	1.1	-1.4	102.0
Cc1cccc(NC(=O)CCNC(=O)c2ccccc2Cl)n1	4.9	-1.5	103.0	-15.9	7.6	-4.1	/
Cc1cccc(S(=O)(=O)NC(=O)C2(C)CCN2C(=O)Cc2ccc(Cl)cc2Cl)c1 (stereo not drawn)	/	/	104.0	6.2	/	-1.3	101.0
Cc1ccc(S(=O)(=O)NC(=O)C2(C)CCN2C(=O)Cc2ccc(-c3ccccc3)cc2)cc1 (stereo not drawn)	/	/	97.0	1.4	/	-7.3	102.0
Cc1cccc(S(=O)(=O)NC(=O)C2(C)CCN2C(=O)Cc2ccccc2)c1 (stereo not drawn)	/	/	99.0	-9.2	/	-0.2	102.0
Cc1cccc(S(=O)(=O)NC(=O)C2(C)CCN2C(=O)CCc2ccccc2)c1 (stereo not drawn)	/	/	94.0	/	/	6.5	/

Source: PubChem BioAssay
